Key:
Assay in all cases: Radiometric protein kinase assay (33PanQinase), Assay Condition A (thiol containing)
Type in all cases: biochemical
CDK12 wt/CycK = CDK12 wt/CycK (Homo sapiens (Human), UniProt Q9NYV4); settings: thiol containing (1.2 mM DTT), ATP 0.3 μM
Experimental: (§1) The IC50 profile of test compounds was determined using three protein kinases.
(§2) The compounds were provided as pre-weighed powders in vials. The compounds were dissolved to 1×10^−02M by adding DMSO. 100 μl of each of the resulting stock solutions were transferred into column 2 of four 96 well “master plates”.
(§3) Prior to testing, the 1×10^−02M stock solutions in column 2 of the master plates were subjected to a serial, semi-logarithmic dilution using 100% DMSO as a solvent. […] Column 1 and 7 were filled with 100% DMSO as controls. Subsequently, 2×10 μl from each well of the serial diluted copy plates were aliquoted with a 96 channel pipettor into two identical sets of “compound dilution plates”.
(§4) In the process, 90 μl H2O were added to each well of a set of compound dilution plates. To minimize potential precipitation, the H2O was added to each plate only a few minutes before the transfer of the compound solutions into the assay plates. Each plate was shaken thoroughly, resulting in a “compound dilution plate/10% DMSO”.
(§5) For the assays, 5 μl solution from each well of the compound dilution plates/10% DMSO were transferred into the assay plates. The final volume of the assay was 50 μl. All compounds were tested at 10 final assay concentrations in the range from 1×10^−04M to 3×10^−09M, in singlicate. The final DMSO concentration in the reaction cocktails was 1% in all cases.
(§6) All protein kinases were expressed in Sf9 insect cells or in E. coli as recombinant GST-fusion proteins or His-tagged proteins, either as full-length or enzymatically active fragments. All kinases were produced from human cDNAs and purified by either GSH-affinity chromatography or immobilized metal. Affinity tags were removed from a number of kinases during purification. The purity of the protein kinases was examined by SDS-PAGE/Coomassie staining, the identity was checked by mass spectroscopy.
(§7) A radiometric protein kinase assay (^33PanQinase® Activity Assay) was used for measuring the kinase activity of the three protein kinases. All kinase assays were performed in 96-well FlashPlates™ from PerkinElmer (Boston, Mass., USA) in a 50 μl reaction volume. The reaction cocktail was pipetted in four steps in the following order: • 20 μl of assay buffer (standard buffer) • 5 μl of ATP solution (in H2O) • 5 μl of test compound (in 10% DMSO) • 20 μl enzyme/substrate mix
(§8) The reaction cocktails were incubated at 30° C. for 60 minutes. The reaction was stopped with 50 μl of 2% (v/v) H3PO4, plates were aspirated and washed two times with 200 μl 0.9% (w/v) NaCl. Incorporation of ^33Pi was determined with a microplate scintillation counter (Microbeta, Wallac). All assays were performed with a BeckmanCoulter/SAGIAN™ Core System.
(§9) The median value of the counts in column 1 (n=8) of each assay plate was defined as “low control”. This value reflects unspecific binding of radioactivity to the plate in the absence of a protein kinase but in the presence of the substrate. The median value of the counts in column 7 of each assay plate (n=8) was taken as the “high control”, i.e. full activity in the absence of any inhibitor. The difference between high and low control was taken as 100% activity.
(§10) As part of the data evaluation the low control value from a particular plate was subtracted from the high control value as well as from all 80 “compound values” of the corresponding plate. The residual activity (in %) for each well of a particular plate was calculated by using the following formula: Res. Activity (%)=100×[(cpm of compound−low control)/(high control−low control)]
(§11) The residual activities for each concentration and the compound IC50 values were calculated using Quattro Workflow V3.1.1 (Quattro Research GmbH, Munich, Germany). […] The fitting method used was a least-squares fit.

Chains of the proteins cited; added tags and fusions are not shown. Lines headed by an entry give the natural chain unless they say otherwise; changes in a name come on top.
UniProt Q9NYV4, whole entry: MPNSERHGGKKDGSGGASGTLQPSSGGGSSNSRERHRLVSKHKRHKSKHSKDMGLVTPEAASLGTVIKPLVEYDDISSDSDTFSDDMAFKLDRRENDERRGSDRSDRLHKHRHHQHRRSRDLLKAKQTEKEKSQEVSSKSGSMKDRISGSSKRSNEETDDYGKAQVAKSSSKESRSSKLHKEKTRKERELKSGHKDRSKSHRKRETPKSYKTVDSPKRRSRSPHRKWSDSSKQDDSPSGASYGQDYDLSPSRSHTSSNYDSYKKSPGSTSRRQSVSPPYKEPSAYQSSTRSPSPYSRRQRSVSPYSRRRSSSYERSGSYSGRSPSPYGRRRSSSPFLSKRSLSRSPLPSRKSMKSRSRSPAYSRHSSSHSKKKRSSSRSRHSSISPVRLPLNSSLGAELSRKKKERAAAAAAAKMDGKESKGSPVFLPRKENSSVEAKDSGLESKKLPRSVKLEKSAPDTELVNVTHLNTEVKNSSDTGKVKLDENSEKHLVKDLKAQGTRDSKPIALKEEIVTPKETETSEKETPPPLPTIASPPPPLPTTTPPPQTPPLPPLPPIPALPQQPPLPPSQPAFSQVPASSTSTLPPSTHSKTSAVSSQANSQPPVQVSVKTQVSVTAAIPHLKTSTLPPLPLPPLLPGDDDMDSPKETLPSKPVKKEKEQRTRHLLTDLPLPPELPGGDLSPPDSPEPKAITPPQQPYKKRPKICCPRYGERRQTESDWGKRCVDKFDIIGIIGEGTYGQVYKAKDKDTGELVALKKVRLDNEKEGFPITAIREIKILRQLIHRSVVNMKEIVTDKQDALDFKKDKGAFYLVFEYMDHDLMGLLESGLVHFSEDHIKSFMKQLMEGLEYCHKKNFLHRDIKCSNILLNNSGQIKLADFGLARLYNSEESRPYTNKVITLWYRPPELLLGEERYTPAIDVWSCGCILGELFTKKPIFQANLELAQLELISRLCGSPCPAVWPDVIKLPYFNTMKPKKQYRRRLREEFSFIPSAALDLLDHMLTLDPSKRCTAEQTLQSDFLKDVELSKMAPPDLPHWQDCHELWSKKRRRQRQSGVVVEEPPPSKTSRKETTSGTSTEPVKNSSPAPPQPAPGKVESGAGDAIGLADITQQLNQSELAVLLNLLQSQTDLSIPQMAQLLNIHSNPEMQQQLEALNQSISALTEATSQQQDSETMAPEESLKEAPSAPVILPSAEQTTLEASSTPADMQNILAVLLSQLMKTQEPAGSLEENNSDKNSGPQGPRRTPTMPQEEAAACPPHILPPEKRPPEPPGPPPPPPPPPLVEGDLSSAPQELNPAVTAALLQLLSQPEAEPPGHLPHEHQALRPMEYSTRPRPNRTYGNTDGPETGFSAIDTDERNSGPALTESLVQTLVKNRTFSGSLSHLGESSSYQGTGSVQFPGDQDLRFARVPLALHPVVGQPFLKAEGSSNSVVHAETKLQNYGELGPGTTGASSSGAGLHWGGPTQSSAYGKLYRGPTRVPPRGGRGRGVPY
UniProt P50613: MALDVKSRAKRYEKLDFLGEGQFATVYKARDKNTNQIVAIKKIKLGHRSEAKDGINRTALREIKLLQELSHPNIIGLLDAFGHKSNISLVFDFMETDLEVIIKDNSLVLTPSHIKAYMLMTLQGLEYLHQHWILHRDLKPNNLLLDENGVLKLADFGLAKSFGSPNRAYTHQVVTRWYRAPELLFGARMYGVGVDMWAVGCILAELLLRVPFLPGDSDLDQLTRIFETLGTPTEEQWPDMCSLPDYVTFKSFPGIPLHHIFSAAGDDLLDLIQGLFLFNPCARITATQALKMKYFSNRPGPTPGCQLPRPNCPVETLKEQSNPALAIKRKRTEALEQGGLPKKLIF

CDK2/CycA2 = CDK2/CycA2 (Homo sapiens (Human), UniProt P24941); settings: thiol containing (1.2 mM DTT), ATP 0.3 μM
Experimental: as §1, §2, §3, §4, §5, §6, §7, §8, §9, §10, §11

CDK7/CycH/MAT1 = CDK7/CycH/MAT1 (Homo sapiens (Human), UniProt P50613)
Experimental: as §1, §2, §3, §4, §5, §6, §7, §8, §9, §10, §11

SMILES | IC50 (CDK12 wt/CycK) | IC50 (CDK2/CycA2) | IC50 (CDK7/CycH/MAT1)
C=CC(=O)Nc1ccc(C(=O)N2CCC[C@@H](Nc3ncc4ccc(C(=O)N(C)C)cc4n3)C2)cc1 [Example 12, (R)-2-((1-(4-acrylamidobenzoyl)piperidin-3-yl)amino)-N,N-dimethylquinazoline-7-carboxamide] | 1000 to 10000 nM | 10 to 30 µM | 30 to 100 µM
CN(C)C/C=C/C(=O)Nc1ccc(C(=O)N2CC[C@@H](Nc3ncc4ccccc4n3)C2)cc1F [Example 68, (R,E)-4-(dimethylamino)-N-(2-fluoro-4-(3-(quinazolin-2-ylamino)pyrrolidine-1-carbonyl)phenyl)but-2-enamide] | 100 to 1000 nM | 1 to 10 µM | 0.1 to 1 µM
CN(C)C/C=C/C(=O)Nc1ccc(C(=O)N2CC[C@@H](Nc3ncc4cc(F)ccc4n3)C2)cc1 [Example 76, (R,E)-4-(dimethylamino)-N-(4-(3-((6-fluoroquinazolin-2-yl)amino)pyrrolidine-1-carbonyl)phenyl)but-2-enamide] | 1000 to 10000 nM | 1 to 10 µM | 1 to 10 µM
Cc1cc(C(=O)N2CC[C@@H](Nc3ncc4ccccc4n3)C2)ccc1NC(=O)/C=C/CN(C)C [Example 83, (R,E)-4-(dimethylamino)-N-(2-methyl-4-(3-(quinazolin-2-ylamino)pyrrolidine-1-carbonyl)phenyl)but-2-enamide] | 1000 to 10000 nM | 1 to 10 µM | 1 to 10 µM
COc1cc(NC(=O)/C=C/CN(C)C)ccc1C(=O)N1CC[C@@H](Nc2ncc3ccccc3n2)C1 [Example 85, (R,E)-4-(dimethylamino)-N-(3-methoxy-4-(3-(quinazolin-2-ylamino)pyrrolidine-1-carbonyl)phenyl)but-2-enamide] | 1000 to 10000 nM | 1 to 10 µM | –
CN(C)C/C=C/C(=O)N(C)c1ccc(C(=O)N2CC[C@@H](Nc3ncc4ccccc4n3)C2)cc1 [Example 86, (R,E)-4-(dimethylamino)-N-methyl-N-(4-(3-(quinazolin-2-ylamino)pyrrolidine-1-carbonyl)phenyl)but-2-enamide] | 100 to 1000 nM | 1 to 10 µM | –

Reference: patent US11447493B2 (Kinnate Biopharma Inc., priority 2018, dated 2022)
